# Measurements published in ChEMBL document CHEMBL1145968, “3-(alphaR)-alpha-((2S,5R)-4-allyl-2,5-dimethyl-1-piperazinyl)-3-hydroxybenzyl)-N-alkyl-N-arylbenzamides: potent, non-peptidic agonists of both the micro and delta opioid receptors” (J Med Chem, 2003).
# Amino acid sequences for entries named in this document (tags omitted).
# UniProt P33535, whole entry: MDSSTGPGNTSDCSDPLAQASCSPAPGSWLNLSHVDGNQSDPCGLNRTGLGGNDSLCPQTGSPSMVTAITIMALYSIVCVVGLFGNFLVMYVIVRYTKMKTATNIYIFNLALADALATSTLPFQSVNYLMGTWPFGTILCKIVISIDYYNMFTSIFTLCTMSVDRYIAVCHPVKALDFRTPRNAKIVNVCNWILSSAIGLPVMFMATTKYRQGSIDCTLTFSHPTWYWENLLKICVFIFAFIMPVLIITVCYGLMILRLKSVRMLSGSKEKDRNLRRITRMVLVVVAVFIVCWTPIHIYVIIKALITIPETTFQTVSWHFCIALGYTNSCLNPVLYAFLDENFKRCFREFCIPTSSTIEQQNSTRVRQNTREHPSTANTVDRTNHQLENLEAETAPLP
# UniProt P33533, whole entry: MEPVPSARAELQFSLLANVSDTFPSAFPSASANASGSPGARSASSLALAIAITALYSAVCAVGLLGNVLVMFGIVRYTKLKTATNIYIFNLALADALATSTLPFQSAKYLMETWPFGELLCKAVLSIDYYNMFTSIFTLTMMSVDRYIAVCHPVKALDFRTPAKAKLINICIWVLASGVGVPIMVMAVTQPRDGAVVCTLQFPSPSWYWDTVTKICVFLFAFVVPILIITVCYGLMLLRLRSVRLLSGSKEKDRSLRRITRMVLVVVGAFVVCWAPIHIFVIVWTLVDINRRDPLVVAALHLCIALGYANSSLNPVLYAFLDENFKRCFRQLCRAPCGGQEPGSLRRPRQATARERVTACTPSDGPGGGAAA
# Columns and labels:
# Mu-type opioid receptor = Mu-type opioid receptor (Rattus norvegicus, UniProt P33535); assay type: cell membranes, Membrane
# [1] = molecular target: Delta-type opioid receptor (Rattus norvegicus, UniProt P33533); experiment: Binding affinity of compound evaluated for Opioid receptor delta 1 isolated from rat brain
SMILES,Ki (Mu-type opioid receptor),Ki [1]
C=CCN1C[C@H](C)N([C@@H](c2cccc(O)c2)c2cccc(C(=O)N(C)c3ccccc3)c2)C[C@H]1C,1.06 nM,
C=CCN1C[C@H](C)N([C@H](c2cccc(O)c2)c2cccc(C(=O)N(C)c3ccccc3)c2)C[C@H]1C,1.55 nM,1.06 nM
C=CCN1C[C@H](C)N([C@@H](c2cccc(O)c2)c2cccc(C(=O)N(C)c3ccccc3F)c2)C[C@H]1C,1.58 nM,1.69 nM
"C=CCN1C[C@H](C)N(C(c2ccc(C(=O)N(CC)CC)cc2)c2cccc(O)c2)C[C@H]1C (single isomer, unassigned)",15 nM,
C=CCN1C[C@H](C)N([C@@H](c2cccc(O)c2)c2cccc(C(=O)N(CC)c3ccc(F)cc3)c2)C[C@H]1C,7.08 nM,6.95 nM
C=CCN1C[C@H](C)N([C@@H](c2cccc(O)c2)c2cccc(C(=O)N(C)CCc3ccccc3)c2)C[C@H]1C,2.19 nM,1.75 nM
C=CCN1C[C@H](C)N([C@@H](c2cccc(O)c2)c2cccc(C(=O)N(C)c3cccc(F)c3)c2)C[C@H]1C (stereo in doubt; 24),0.46 nM,
C=CCN1C[C@H](C)N([C@@H](c2cccc(O)c2)c2cccc(C(=O)N3CCCc4ccccc43)c2)C[C@H]1C,2.55 nM,
C=CCN1C[C@H](C)N([C@@H](c2cccc(O)c2)c2cccc(C(=O)N(CC)c3ccccc3)c2)C[C@H]1C,3.39 nM,
C=CCN1C[C@H](C)N([C@@H](c2cccc(O)c2)c2cccc(C(=O)N(C)c3ccc([N+](=O)[O-])cc3)c2)C[C@H]1C,2.78 nM,2.41 nM
C=CCN1C[C@H](C)N([C@@H](c2cccc(O)c2)c2cccc(C(=O)N(c3ccccc3)C3CC3)c2)C[C@H]1C,2.37 nM,
C=CCN1C[C@H](C)N([C@@H](c2cccc(O)c2)c2cccc(C(=O)N(C)c3cccc(F)c3)c2)C[C@H]1C (stereo in doubt; 32),7.56 nM,
C=CCN1C[C@H](C)N([C@@H](c2cccc(O)c2)c2cccc(C(=O)N(C)c3ccc(OC)cc3)c2)C[C@H]1C,2.35 nM,
C=CCN1C[C@H](C)N([C@H](c2cccc(O)c2)c2cccc(C(=O)N(CC)CC)c2)C[C@H]1C,3.2 nM,
C=CCN1C[C@H](C)N([C@@H](c2cccc(O)c2)c2cccc(C(=O)N(C)c3ccc(Cl)cc3)c2)C[C@H]1C,3.46 nM,
C=CCN1C[C@H](C)N([C@@H](c2cccc(O)c2)c2cccc(C(=O)N(C)c3ccccc3C(F)(F)F)c2)C[C@H]1C,2.74 nM,2.31 nM
C=CCN1C[C@H](C)N([C@@H](c2cccc(O)c2)c2cccc(C(=O)N(C)Cc3ccccc3)c2)C[C@H]1C,2.16 nM,1.88 nM
C=CCN1C[C@H](C)N([C@@H](c2cccc(O)c2)c2cccc(C(=O)N(C)c3ccc(F)cc3)c2)C[C@H]1C,1.49 nM,
C=CCN1C[C@H](C)N([C@@H](c2cccc(O)c2)c2cccc(C(=O)N(CCC)c3ccc(F)cc3)c2)C[C@H]1C,7.06 nM,
C=CCN1C[C@H](C)N([C@@H](c2cccc(O)c2)c2cccc(C(=O)N(CCCC)c3ccccc3)c2)C[C@H]1C,8.88 nM,9.2 nM
C=CCN1C[C@H](C)N([C@@H](c2cccc(O)c2)c2cccc(C(=O)N(CCC)c3ccccc3)c2)C[C@H]1C,1.82 nM,
